Assay results reported in patent US20050136444A1 (priority 2003, published 2005).

Amino acid sequences for entries named in this document (tags omitted). A change or cut given only in a name is not applied to a line headed by its entry.
UniProt P43116: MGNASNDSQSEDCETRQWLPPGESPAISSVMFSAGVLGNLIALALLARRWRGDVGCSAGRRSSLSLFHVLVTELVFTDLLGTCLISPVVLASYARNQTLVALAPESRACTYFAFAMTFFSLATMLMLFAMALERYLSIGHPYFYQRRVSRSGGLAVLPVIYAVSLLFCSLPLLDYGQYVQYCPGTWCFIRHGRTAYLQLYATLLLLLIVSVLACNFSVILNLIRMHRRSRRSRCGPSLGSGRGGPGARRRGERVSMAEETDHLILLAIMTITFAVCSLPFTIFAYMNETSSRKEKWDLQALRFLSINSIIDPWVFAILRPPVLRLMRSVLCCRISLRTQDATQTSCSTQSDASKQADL

Biological target: T1, EP2 receptor (Homo sapiens, UniProt P43116)
T1 construct: expressed in transfected cells; host or cells: HEK-T
Test: cAMP response to PGE2 in HEK-T cells (EP2 co-transfection)
Format: cell-based
Settings: transfected HEK-T cells
Procedure: An assay was established for measuring cAMP in transiently transfected cells that takes advantage of the fact that most cells that are transfected with one gene, can be simultaneously transfected with other genes. Thus, the NPFF1 and NPFF2 receptors were transfected along with a Gs-coupled receptor (EP2) at a ratio of 5:1. In un-transfected HEK-T cells there is no response to PGE2 (agonist for EP2) at doses as high 10 μM. […] Improvement was also detected in the sensitivity of the assay in some cases when cells are co-transfected with AC5 at ½-⅕ of the amount of DNA of the Gi-coupled receptor studied.

EC50: 170 nM
Compound: CCCCC[C@H](O)/C=C/[C@H]1[C@H](O)CC(=O)[C@@H]1C/C=C\CCCC(=O)O [PGE2]
